Measured values taken from PMC9887206, “Cationic biopolymer decorated Asiatic Acid and Centella asiatica extract incorporated liposomes for treating early-stage Alzheimer’s disease: An In-vitro and In-vivo investigation” (F1000Research, 2022).

Tested on: AlCl3-induced AD model in rats
Assay: Histopathology of the brain, neuronal count in hippocampus CA1 and CA3
Type: in vivo, Wistar rats
Details: day 90, mean ±SE, n=6
Protocol: Disease control: AlCl 3 (50 mg/kg) • 3. […] AlCl 3 (50 mg/kg) + CLAA (100 mg/kg)
The rats were euthanized on the 90 ^th day. The brain was perfused using ice-cold normal saline and then dissected to isolate the frontal cortex and hippocampus. Hippocampus was sectioned, and tissue processing was done. The tissue was stained with 0.1 % crystal violet stain and observed under the microscope (Zeiss Primo Star Digital, Germany). Photographs of the CA1 and CA3 areas of the hippocampus were taken, and the number of normal healthy neurons out of 100 neurons was counted with the help of image J software (version 1.53t).

## CCN(C)C(=O)Oc1cccc([C@H](C)N(C)C)c1 [Standard, Rivastigmine]
  Neuronal count (out of 100) CA1: 50.75±3.70
  Neuronal count (out of 100) CA3: 54.21±1.47
